## Yeast mating assay B: variants of the scFv Ab-14

From the AlphaSeq antibody data of Li et al. 2023 (doi:10.1038/s41467-023-39022-2), copy in the FLAb collection.

Antigen: PDVDLGDISGINAS, a 14-residue peptide of the SARS-CoV-2 spike HR2 region.

Each scFv is VH, the linker GGGGSGGGGSGGGGS, VL, as in the parent Ab-14, and differs from it in the CDRs of the heavy chain only.
VH: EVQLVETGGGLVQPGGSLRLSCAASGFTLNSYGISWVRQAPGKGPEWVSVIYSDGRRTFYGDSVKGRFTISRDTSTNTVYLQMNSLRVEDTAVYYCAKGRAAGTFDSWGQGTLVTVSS
VL: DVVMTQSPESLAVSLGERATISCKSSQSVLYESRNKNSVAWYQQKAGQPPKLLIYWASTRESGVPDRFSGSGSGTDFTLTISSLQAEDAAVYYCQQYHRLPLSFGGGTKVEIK

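The parent was found by panning a naive human phage display library on the peptide. Designed CDR sequences, proposed from the first random library and measured here. Group labels follow the data file (Ctrl: baseline library sampled from a position-specific scoring matrix, with some repeated check sequences; En: ensemble of fine-tuned language models; GP: Gaussian process model; GPLM: also part of the Gaussian process libraries; HC: hill climbing; Gen: genetic algorithm; Gibbs: Gibbs sampling; a sequence that several methods proposed may carry one label only). The scFvs were displayed on barcoded MATa yeast, the peptide on MATalpha yeast. Mating (16 h, 30 °C) was followed by selection of diploids and sequencing of their barcodes. Scores were corrected for input abundance and mapped to Kd with protein pairs of known affinity run in the same pool. The assay was run in six technical replicates.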

Each variant is given by its three heavy chain CDRs, as the data file delimits them; those of the parent are GFTLNSYGIS, VIYSDGRRTFYGDSVK, GRAAGTFDS. Variants here have at most six changes. Each Kd is an estimate from the mating assay, the geometric mean of the replicates in which the pair was seen; lower is stronger. "nd" means that the variant was in the library but no mating with the target was seen in any replicate; the authors take this as a sign of poor binding, and no number exists. The range of this assay differs from that of the first round, and the authors advise against merging the two. The authors' rule: three or more of the six replicates give a measured affinity, fewer mean a poor binder. Background: pairings of all heavy chain designs with three empty control strains gave a value in 1% of cases (median 120 nM, 5th percentile 7.0 nM). Values in that range, when seen in few replicates, are hard to tell from nonspecific mating. A sequence that the file lists under several names has all its replicates pooled.

- GFSLNSYGIS, VIYSDGRRWFYGDSVK, GQTAGTFDS [GP_Gibbs] -> 520 nM (1 of 6 replicates)
- GFTLNSYGIS, VIYSDGMRTFYGDSVK, GRVAGEFDS [Ctrl] -> nd (0 of 6 replicates)
- GFDLNQYGIS, VIYSDGMRTFYSDSVK, GRAAGTFDS [GPLM_HC] -> 11 nM (5 of 6 replicates)
- GFTLNEYGIQ, VIYSDGERTAYGDDVK, GRAAGTFDS [Ctrl] -> 5.6 nM (1 of 6 replicates)
- GFTLNEYGIS, VIYSDGRRTFYGDSVK, GQAAGTFDL [GPLM_Gen] -> 470 pM (6 of 6 replicates)
- GFELNEYGIS, VIYSDGRRTFYTDSVK, GRTAGTFDS [GPLM_Gen] -> 1.1 nM (6 of 6 replicates)
- GFTLNSYGIS, VIYADGRRTFYGDSVK, GEAAGTFES [GPLM_Gen] -> 3.2 nM (5 of 6 replicates)
- GFTLNSYGIS, VIYSDGRRTFYDDDVK, GQEAGTFDS [GP_HC] -> 72 nM (3 of 6 replicates)
- GFTLNEYGIS, VIYSDGCRTFYTDSVK, GRFAGTFDS [GPLM_HC] -> nd (0 of 6 replicates)
- GFNLNSYGIS, VIYSDGRRTFYGDSVK, GKAAGTFDS [Ctrl+GPLM_Gen] -> 42 nM (10 of 12 replicates)
- GFQLNSYGIS, VIYSDGRRTFYGDSVK, GRLAGAFDK [Ctrl] -> nd (0 of 6 replicates)
- GFTLNSYGIS, VIYADGRRTFYSDSTK, GRAAGTFDS [Ctrl] -> 13 nM (6 of 6 replicates)
- GFQLNSYGIS, VIYSDGRRTFYGDNVK, GKTAGTFDT [GP_Gibbs] -> 10 nM (5 of 6 replicates)
- GFQLNDYGIS, VIYSDGRRTFYGDSVK, GRAAGTFDD [GP_HC] -> 34 nM (5 of 6 replicates)
- GFTLNSYGIS, VIYSDGRRTFYGDSVH, GRAAGTFDQ [Ctrl] -> nd (0 of 6 replicates)
- GFHLNSYGIS, VIYSDGRRTMYGDSVK, GRAAGTFDS [Ctrl] -> 190 nM (5 of 6 replicates)
- YFTLNEYGIS, VIYSDGRRTFYSDSVK, GQAAGTFDK [GP_Gibbs] -> 23 nM (2 of 6 replicates)
- GFTLKSYGIS, VIYSDGKRTFYSDSVK, DRAAGTFDS [Ctrl] -> nd (0 of 6 replicates)
- GFDLNSYGIS, VIYSDGRRTFYADKVK, GQAAGTFDS [GP_Gen] -> 2.7 nM (5 of 6 replicates)
- GFTINSYGIS, VIYSDGRRTAYGDEVK, GRAAGHFKS [Ctrl] -> 1.2 nM (1 of 6 replicates)
- GFTLNSYGIS, VIYSDGRRTFYIDSVK, GTVAGTFDS [GP_Gibbs] -> 1.8 nM (2 of 6 replicates)
- GFTLNEYGIS, VIYSDGRRTFYGDSVK, GREAGTFDD [GP_HC] -> 1.4 nM (6 of 6 replicates)
- GFELNSYGIS, VIYSDGRRTFYGDSVK, GRTAGTFDL [GP_Gen] -> 6.2 nM (6 of 6 replicates)
- GFTLNSYGIS, VIYSDGRRTFYGDSVK, GRAAGCFDS [Ctrl] -> nd (0 of 6 replicates)
- GFTLNSYGIS, VIYSDGERTFYCDSVK, GQAAGTFDS [GP_HC] -> nd (0 of 6 replicates)
- GLTLNSYGIP, VIYSDGRRTAYGDSVK, GRAAGTFDS [Ctrl] -> nd (0 of 6 replicates)
- GFNLNSYGIS, VIYSDGRRTFYADSVK, GQAAGTFDT [GPLM_Gen] -> 3.0 nM (6 of 6 replicates)
- GFELNMYGIS, VIYSDGRRTAYGDSVK, GRQAGTFDS [GP_Gibbs] -> 630 pM (6 of 6 replicates)
- GFQLNSYGIS, VIYSDGRRTFYGDSVR, GRAAGTFDS [Ctrl] -> 160 nM (3 of 6 replicates)
- GFSLNDYGIS, VIYSDGRRTFYGDSVK, GRTAGTFDE [GPLM_Gen] -> 1.5 nM (6 of 6 replicates)
- GFDLNSYGIS, VIYSDGRRTFYADSVK, GKAAGTFDA [GP_Gen] -> 500 pM (6 of 6 replicates)
- GETLNSYGIS, VIYSDGRRTFYLDSVK, GRAAGTFDM [Ctrl] -> 68 nM (1 of 6 replicates)
- GFNLNEYGIS, VIYADGRRTAYSDSVK, GEAAGTFDS [En_HC] -> 320 pM (6 of 6 replicates)
- GFTLNSYGIS, VIYSDGRRTFYGDSVK, GRAAGTFDP [Ctrl] -> nd (0 of 6 replicates)
- GFDLNSYGIS, VIYSDGRRTFYGDSVK, GRAAGIFDS [GPLM_HC] -> 2.3 µM (1 of 6 replicates)
- GFSLNYYGIS, VIYSDGRRTFYGDSVK, GRTAGTFDS [GPLM_Gen] -> 28 nM (6 of 6 replicates)

The last 2 entries again:

CDR-H1,CDR-H2,CDR-H3,group,Kd,replicates with signal
GFDLNSYGIS,VIYSDGRRTFYGDSVK,GRAAGIFDS,GPLM_HC,2.3 µM,1 of 6
GFSLNYYGIS,VIYSDGRRTFYGDSVK,GRTAGTFDS,GPLM_Gen,28 nM,6 of 6